This note sets out measurements from PubChem BioAssay AID1846 (The Scripps Research Institute Molecular Screening Center, 2009).

The list shows a part of the results, in another mix than the full data. The source made the active and inactive calls. No stated cut-off is given here; in the data, active means inhibition above about 18%; inactive means the rest.

The target in this assay is Heat shock protein HSP 90-alpha (Homo sapiens) (UniProt P07900). Briefly: inhibitors of HSP90 chaperone activity – cell lysate, luminescence, confirmation (AID 1846).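 Further: 0% = vehicle wells and 100% = reference inhibitor wells.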 Conditions: rabbit reticulocyte lysate, luciferase refolding luminescence, 3 h; at 5.9 µM; active compounds read high.
What is called inhibition is the drop in the measured response relative to a control, in per cent. For `O=P(Nc1nccs1)(c1ccccc1)c1nc2ccccc2s1` (configuration not stated), the inhibition is active: 70.1%.

In the case of `O=C(O)c1ccccc1[As](=O)(O)O`, the inhibition was active: 74.7%.
